PMC10337942
Several values for one entry are separate records, joined by “and”; a condition that tells them apart may be missing. Identical values can stand only once.

Biological target: His-ERC1(270–370) (mouse)
Assay: AlphaScreen or HTRF; ALPHA saturation binding, apparent Kd: 5, 15 or 45 nM His-ERC1(270–370) titrated with GST-LL5β(381–510) (6.25-400 nM); anti-GST acceptor and anti-6xHis donor beads; 25 mM HEPES pH 7.4, 100 mM NaCl, 0.1% BSA, room temperature; one-site model, GST-LL5β values below 100 nM considered

In the case of GST-LL5β(381–510) (domain or fragment), the Kd is reported as 99.8 nM and 110 nM and 78.8 nM.
